The source of these data is PubChem BioAssay AID651725 (National Center for Advancing Translational Sciences (NCATS), 2012).

Protein sequences, listed by entry. Tags and fused reporters are not part of them.
UniProt Q15475, whole entry: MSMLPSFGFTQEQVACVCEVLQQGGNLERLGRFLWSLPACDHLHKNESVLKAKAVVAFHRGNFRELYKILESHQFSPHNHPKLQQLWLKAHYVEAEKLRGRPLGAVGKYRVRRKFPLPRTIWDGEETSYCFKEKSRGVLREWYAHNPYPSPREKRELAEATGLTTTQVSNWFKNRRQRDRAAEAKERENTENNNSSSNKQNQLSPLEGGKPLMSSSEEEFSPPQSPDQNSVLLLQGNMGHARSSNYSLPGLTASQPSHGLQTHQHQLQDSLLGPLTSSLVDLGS

Each structure is given as a SMILES string. This is a selection; strong and weak results do not stand in their true shares. Some structures show a salt or complex split into parts, the way the source records it. Active and inactive are the calls of the source. Cut-off read from the data, not from the text of the source: active = activity change below about -65%; inconclusive = mostly about -30% to -63%; inactive = weaker than that.
% is set by controls: 0 for no effect and ±100 for the full control effect.

For this test, the target named is Homeobox protein SIX1 (Homo sapiens) + Protein phosphatase EYA2 (Homo sapiens) (UniProt Q15475+O00167). The test is described as follows: qHTS Assay for Inhibitors of the Six1/Eya2 Interaction. Conditions: AlphaScreen GST-Six1/His-Eya2 binding, biochemical; stronger effect = lower value. From the text: Its expression is low or undetectable in normal adult breast tissue but the gene is over-expressed in 50% of primary breast tumors and 90% of metastatic lesions. […] Similar to Six1, Eya2 is also not expressed in most normal adult tissues, but is reexpressed in cancers. The Six1-Eya interaction is essential for proliferation during embryonic development, and both Six1 and Eya2 have been independently implicated in the same types of cancer. Because Six1 and Eya2 are embryonic genes with little expression in adult tissues, inhibitors of their expression/activity are likely to have limited side effects. Our goal is to identify inhibitors of the Six1/Eya interaction for potential cancer therapy. To this end, we have developed a homogenous AlphaScreen assay targeting the Six1/Eya interaction. We performed a large scale HTS of the Molecular Libraries Small Molecule Repository (MLSMR) to identify inhibitors of the Six1/Eya interaction as potential anti-cancer therapeutics. Compounds identified can also be used as chemical probes to better understand the biological functions of Six1 and Eya. NIH Chemical Genomics Center [NCGC] NIH Molecular Libraries Probe Centers Network [MLPCN] MLPCN Grant: DA033147 Assay Submitter (PI): Rui Zhao, University of Colorado Denver
The first step of the 5 uL AlphaScreen assay is to dispense assay buffer (50 mM Tris, pH 8.0, 300 mM NaCl, 0.05% BSA, 0.02% Tween 20, 1 mM TCEP) into a Greiner 1536 white solid bottom microtiter plate (789175-F). Five microliters is added to Column 1, 4 uL is added to Column 2 and 3 uL is added to Columns 3 through 48. A 5X protein solution (250 nM GST-Six1 protein + 500 nM His-tagged Eya2 protein) is mixed and 1 uL is dispensed to Columns 3-48. Using a 1536 pintool, 23 nL of compound is transferred to the assay plate. A solution of 5X AlphaScreen beads is mixed (50 ug/mL Glutathione linked donor beads + Nickel chelated acceptor beads) and 1 uL is dispensed to Columns 2-48. The assay plate is incubated for one hour, with a lid, at 37 deg C in the dark. The plate is read using a Perkin Elmer Envision using an AlphaScreen protocol.
For `Cc1ccccc1NC1(C#N)CCN(Cc2ccccc2)CC1`, the activity change is inactive: -4.03%.
Then `COc1ccc(C(c2nnnn2C2CCCCC2)N2CCC(n3c(=O)[nH]c4ccccc43)CC2)cc1` (stereo not given), with inactive: 0.2%.
Then `CCN1CCC(Nc2cccc(F)c2)CC1`, with inactive: 2.26%; and `CC(C)(C)n1nnnc1C(c1ccnc2ccccc12)N1CCC(n2c(=O)[nH]c3ccccc32)CC1` (stereo not given), with inactive: 2.53%; and `O=C(NCC1(N2CCCCC2)CCCCC1)c1ccco1`, with inactive: -2.3%.
As for `CN(C)c1ccc(C(=O)NCC2(N3CCCCC3)CCCCC2)cc1`, the figure is inactive: 0.891%.
On to `Cn1c(=O)[nH]cc(N(CCCl)CCCl)c1=O`, for which the activity change was inactive: 3.83%.
As for `COc1cc(OC)cc(C(=O)NCC2(N3CCCCC3)CCCCC2)c1`, the figure is inactive: -9.84%; as for `O=c1[nH]c2ccccc2n1C1CCN(C(c2ccnc3ccccc23)c2nnnn2C2CCCCC2)CC1` (stereo not given), inactive: -15.7%.
For the compound `COc1cccc(C(c2nnnn2C2CCCCC2)N2CCC(n3c(=O)[nH]c4ccccc43)CC2)c1OC` (stereo not given), the activity change was inactive: -15.6%.
Take `CC(=O)N(c1ccccc1)C1CCNCC1`: the activity change is inactive: -0.935%.
As for `CCC(c1nnnn1C1CCCCC1)N1CCC(n2c(=O)[nH]c3ccccc32)CC1` (stereo not given), the figure is inactive: 11.8%; as for `Cc1ccc(NC2(C#N)CCN(Cc3ccccc3)CC2)cc1`, inactive: 12.3%.
Take `Cc1ccc(C(=O)NCC2(N3CCCCC3)CCCCC2)o1`: the activity change is inactive: 1.44%.
Then `Fc1ccccc1NC1CCN(Cc2ccccc2)CC1`, with inactive: 0%; and `CCC(CO)(C(=O)OC1CN2CCC1CC2)c1ccccc1` (stereo not given), with inactive: 7.78%.
Then `COc1cccc(C(=O)N(c2cc(C)cc(C)c2)C2CCN(C(=O)OC(C)(C)C)CC2)c1`, with inactive: -6.94%; and `COc1cccc(C(c2nnnn2C2CCCC2)N2CCC(n3c(=O)[nH]c4ccccc43)CC2)c1OC` (stereo not given), with inactive: -13%; and `COc1cc(OC)cc(C(=O)NCC2(N3CCOCC3)CCCCC2)c1`, with inactive: -0.757%.
On to `CN1CCC(Nc2ccc(Cl)cc2)CC1`, for which the activity change is inactive: 2.94%.
As for `CCOc1ncccc1C(=O)NCC1(N2CCOCC2)CCCCC1`, the figure is inactive: -4.06%; as for `CN1CCC(Nc2ccc(F)c(Cl)c2)CC1`, inactive: 0%.
As to `O=c1[nH]c2ccccc2n1C1CCN(C(c2cc3ccccc3o2)c2nnnn2C2CCCC2)CC1` (stereo not given), the activity change was inactive: -20.5%.
As for `CCCOc1ccc(C(=O)NCC2(N(C)C)CCCCC2)cc1`, the figure is inactive: 0%; as for `CC(C)(C)OC(=O)N1CCC(Nc2ccccc2)CC1`, inactive: -1.5%; as for `NN(c1ccccc1)C1CCN(CCc2ccccc2)CC1`, inactive: -18.9%.
As for `O=C(O)C1(Nc2ccccc2)CCN(Cc2ccccc2)CC1`, the activity change was inactive: 0.174%.
As for `N/C(=N\O)c1c(N)no[n+]1[O-]`, the figure is inactive: -3.69%; as for `CCOC(=O)N1CCC(Nc2ccc(C)cc2)CC1`, inactive: -9.18%; as for `COc1cccc(C(c2nnnn2C(C)(C)C)N2CCC(n3c(=O)[nH]c4ccccc43)CC2)c1OC` (stereo not given), inactive: -2.29%.
`CCCCn1nnnc1C(c1cccc(OC)c1OC)N1CCC(n2c(=O)[nH]c3ccccc32)CC1` (stereo not given): the activity change was inactive: -15.6%.
As for `CCc1cc(C(=O)NCC2(N3CCCCC3)CCCCC2)sc1C`, the figure is inactive: -2.66%; as for `O=C(OC1CN2CCC1CC2)C1c2ccccc2C=Cc2ccccc21` (stereo not given), inactive: -4.58%.
For `O=C(O)c1cccc(Nc2c([N+](=O)[O-])cc([N+](=O)[O-])cc2[N+](=O)[O-])c1`, the activity change was inactive: 0.558%.
Turning to `O=c1[nH]c2ccccc2n1C1CCN(C(c2cccs2)c2nnnn2C2CCCC2)CC1` (stereo not given), the activity change was inactive: -9.88%.
`O=C(NCC1(N2CCOCC2)CCCCC1)c1cc(Br)ccc1Cl`: the activity change was inactive: 15.7%.
`CCCCn1nnnc1C(c1ccccc1)N1CCC(n2c(=O)[nH]c3ccccc32)CC1` (stereo not given): the activity change is inactive: -8.65%.
`COc1cc(C(=O)NCC2(N3CCOCC3)CCCCC2)cc(OC)c1C`: the activity change was inactive: -2.67%.
For `COc1ccc(C(=O)NCC2(N3CCOCC3)CCCCC2)cc1OC`, the activity change is inactive: 6.61%.
Then `O=c1[nH]c2ccccc2n1C1CCN(C(c2ccnc3ccccc23)c2nnnn2C2CCCC2)CC1` (stereo not given), with inactive: -10.2%.
Turning to `O=c1[nH]c2ccccc2n1C1CCN(C(c2cccs2)c2nnnn2C2CCCCC2)CC1` (stereo not given), the activity change was inactive: -2.88%.
As for `c1ccc(CN2CCC(Nc3ccccc3)CC2)cc1`, the activity change is inactive: -3.82%.
With `O=c1[nH]c2ccccc2n1C1CCN(C(c2ccccc2)c2nnnn2C2CCCC2)CC1` (stereo not given), the activity change is inactive: -3.79%.
For `CCCN1CCC(Nc2cc(OC)cc(OC)c2)CC1`, the activity change was inactive: -2.64%.
On to `Cc1cc(N(CCCl)CCCl)ccc1C=O`, for which the activity change was inactive: 0.444%.
As for `CN(C)C1(CNC(=O)c2cccc(C#N)c2)CCCCC1`, the figure is inactive: 4.61%; as for `CC(C)(C)n1nnnc1C(c1cccc2ccccc12)N1CCC(n2c(=O)[nH]c3ccccc32)CC1` (stereo not given), inactive: -12.2%.
For the compound `CC(C)(C)OC(=O)N1CCC(N(C(=O)c2ccccc2)c2ccc(Cl)cc2)CC1`, the activity change was inactive: -7.31%.
As for `N#Cc1ccc(C(=O)NCC2(N3CCCCC3)CCCCC2)cc1`, the figure is inactive: -14%; as for `CCOC(=O)C(CC)C1=NC(C)(C)Cc2ccccc21.O=[N+]([O-])c1cc([N+](=O)[O-])c(O)c([N+](=O)[O-])c1` (stereo not given), inactive: -3.98%; as for `O=C(NCC1(N2CCCCC2)CCCCC1)c1cccc(C(F)(F)F)c1`, inactive: 4.5%.
Then `O=[N+]([O-])c1cc([N+](=O)[O-])c(NCC2CCS(=O)(=O)C2)c([N+](=O)[O-])c1` (stereo not given), with inactive: -17.8%.
For the compound `COc1ccc(NC2CCN(C(=O)OC(C)(C)C)CC2)cc1`, the activity change is inactive: -17%.
Then `CC(C)c1ccc(C(=O)NCC2(N3CCOCC3)CCCCC2)cc1`, with inactive: 5.15%; and `CN1CCN(CCOC(=O)C(O)(c2ccccc2)c2ccccc2)CC1`, with inactive: 2.94%; and `CCCCn1nnnc1C(c1cccc2ccccc12)N1CCC(n2c(=O)[nH]c3ccccc32)CC1` (stereo not given), with inactive: -12.9%.
Then `O=C(NCC1(N2CCOCC2)CCCCC1)c1cc(=O)[nH]c2ccccc12`, with inactive: 12.5%.
With `COc1cc(C(=O)NCC2(N3CCCCC3)CCCCC2)ccc1OC(F)F`, the activity change was inactive: -0.688%.
On to `CC(C)(C)n1nnnc1C(c1ccccc1OC(F)(F)F)N1CCC(n2c(=O)[nH]c3ccccc32)CC1` (stereo not given), for which the activity change was inactive: -0.865%.
With `O=C(NCC1(N2CCCCC2)CCCCC1)c1ccc(OC(F)F)cc1`, the activity change was inactive: -6.83%.
Regarding `CSc1ccc(C(=O)NCC2(N3CCOCC3)CCCCC2)cc1`, the activity change was inactive: 7.95%.
Take `O=C(NCC1(N2CCCCC2)CCCCC1)c1cccc([N+](=O)[O-])c1`: the activity change is inactive: 3.9%.
In the case of `CCN1CCC(Nc2ccc(Cl)cc2)CC1`, the activity change was inactive: -1.83%.
Then `O=c1[nH]c2ccccc2n1C1CCN(C(c2ccccc2OC(F)(F)F)c2nnnn2C2CCCC2)CC1` (stereo not given), with inactive: -9.48%.
With `N#CC1(Nc2ccccc2)CCN(CCc2ccccc2)CC1`, the activity change is inactive: -0.29%.
With `CN1CCC(Nc2cccc(F)c2)CC1`, the activity change is inactive: 2.28%.
In the case of `O=C(NCC1(N2CCCCC2)CCCCC1)c1cncc(Br)c1`, the activity change is inactive: 5.26%.
For the compound `COc1ccc2c(c1O)-c1c(O)c(OC)cc3c1[C@H](C2)[N+](C)(C)CC3.O=[N+]([O-])c1cc([N+](=O)[O-])c([O-])c([N+](=O)[O-])c1[O-]`, the activity change was inactive: -7.88%.
Then `O=C(OC1CN2CCC1CC2)c1ccc([N+](=O)[O-])cc1` (stereo not given), with inactive: -7.36%.
As for `Cc1ccc(C(=O)NCC2(N(C)C)CCCCC2)o1`, the figure is inactive: 0.253%; as for `CCCOc1ccc(C(=O)NCC2(N(C)C)CCCCC2)cc1OC`, inactive: -0.539%.
As for `COc1ccc(C(c2nnnn2C2CCCC2)N2CCC(n3c(=O)[nH]c4ccccc43)CC2)cc1` (stereo not given), the figure is inactive: -11.8%; as for `COc1ccc(CN(CCCl)CCCl)cc1Cl`, inactive: 2.8%; as for `CN(C)c1cccc(C(=O)NCC2(N3CCCCC3)CCCCC2)c1`, inactive: -1.53%.
In the case of `O=[N+]([O-])c1cc([N+](=O)[O-])c(OC2CCCCC2O)c([N+](=O)[O-])c1` (stereo not given), the activity change is inactive: 17.7%.
With `CCCCn1nnnc1C(c1ccccc1OC(F)(F)F)N1CCC(n2c(=O)[nH]c3ccccc32)CC1` (stereo not given), the activity change was inactive: -6.65%.
For `CCCCn1nnnc1C(c1ccnc2ccccc12)N1CCC(n2c(=O)[nH]c3ccccc32)CC1` (stereo not given), the activity change was inactive: -1.46%.
As for `COc1cc(OC)c(C(=O)NCC2(N(C)C)CCCCC2)cc1OC`, the activity change was inactive: 4.13%.
Consider `CCC(c1nnnn1C(C)(C)C)N1CCC(n2c(=O)[nH]c3ccccc32)CC1` (stereo not given), for which the activity change was inactive: 1.44%.
Turning to `O=C(NCC1(N2CCOCC2)CCCCC1)c1cc(F)c(F)cc1Cl`, the activity change was inactive: 3.25%.
As for `O=C(NCC1(N2CCOCC2)CCCCC1)c1cc2ccccc2o1`, the activity change is inactive: -6.08%.
With `O=C(NCC1(N2CCCCC2)CCCCC1)c1ccc(Cl)nc1`, the activity change is inactive: 1.07%.
Then `O=c1[nH]c2ccccc2n1C1CCN(C(c2ccccc2OC(F)(F)F)c2nnnn2C2CCCCC2)CC1` (stereo not given), with inactive: 0.131%; and `Cc1cc(C)cc(N(C(=O)c2ccccc2)C2CCN(C(=O)OC(C)(C)C)CC2)c1`, with inactive: 5.68%.
Regarding `CCOC(=O)N1CCC(Nc2ccc(OC)cc2)CC1`, the activity change is inactive: -4.26%.
As for `CCCCn1nnnc1C(c1ccc(OC)cc1)N1CCC(n2c(=O)[nH]c3ccccc32)CC1` (stereo not given), the activity change was inactive: -0.998%.
For `N#CC1(Nc2ccccc2)CCN(Cc2ccccc2)CC1`, the activity change is inactive: -10.3%.
As for `O=C(NCC1(N2CCCCC2)CCCCC1)c1ccc(Cl)s1`, the figure is inactive: 4.05%.
Regarding `O=c1[nH]c2ccccc2n1C1CCN(C(c2cc3ccccc3o2)c2nnnn2C2CCCCC2)CC1` (stereo not given), the activity change was inactive: -13.1%.
On to `O=C(OC1CN2CCC1CC2)C1c2ccccc2Oc2ccccc21` (stereo not given), for which the activity change is inactive: -3.17%.
